Assay results reported in US6262064A, “Octahydrobenzo[f]quinoline-based receptor agonists and antagonists” (priority 1999, dated 2001).

Protein sequences, listed by entry. Tags and fused reporters are not part of them.
UniProt P61169, whole entry: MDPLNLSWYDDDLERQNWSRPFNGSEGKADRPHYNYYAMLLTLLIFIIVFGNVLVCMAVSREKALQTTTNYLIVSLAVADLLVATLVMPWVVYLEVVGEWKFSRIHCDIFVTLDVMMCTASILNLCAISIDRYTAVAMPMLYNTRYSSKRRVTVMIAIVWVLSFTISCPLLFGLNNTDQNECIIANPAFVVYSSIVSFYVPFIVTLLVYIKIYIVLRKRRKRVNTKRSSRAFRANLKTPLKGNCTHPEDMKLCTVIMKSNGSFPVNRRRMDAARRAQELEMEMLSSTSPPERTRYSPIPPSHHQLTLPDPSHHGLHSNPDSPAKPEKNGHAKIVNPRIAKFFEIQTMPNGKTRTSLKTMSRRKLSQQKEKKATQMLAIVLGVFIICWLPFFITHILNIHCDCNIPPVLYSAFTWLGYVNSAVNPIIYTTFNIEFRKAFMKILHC
UniProt P14842, whole entry: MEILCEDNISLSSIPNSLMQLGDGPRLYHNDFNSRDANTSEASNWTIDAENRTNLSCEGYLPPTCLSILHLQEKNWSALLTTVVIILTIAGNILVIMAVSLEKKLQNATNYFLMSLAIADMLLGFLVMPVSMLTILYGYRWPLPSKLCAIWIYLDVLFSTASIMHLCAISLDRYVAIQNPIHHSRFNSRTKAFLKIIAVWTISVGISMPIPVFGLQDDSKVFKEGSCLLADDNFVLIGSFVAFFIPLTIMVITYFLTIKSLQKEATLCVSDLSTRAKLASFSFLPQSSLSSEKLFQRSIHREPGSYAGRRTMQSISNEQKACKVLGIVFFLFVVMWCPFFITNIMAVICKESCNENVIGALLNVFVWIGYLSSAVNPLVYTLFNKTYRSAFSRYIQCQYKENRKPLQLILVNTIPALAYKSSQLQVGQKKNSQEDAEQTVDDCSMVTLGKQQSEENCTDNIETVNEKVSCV
UniProt P18901, whole entry: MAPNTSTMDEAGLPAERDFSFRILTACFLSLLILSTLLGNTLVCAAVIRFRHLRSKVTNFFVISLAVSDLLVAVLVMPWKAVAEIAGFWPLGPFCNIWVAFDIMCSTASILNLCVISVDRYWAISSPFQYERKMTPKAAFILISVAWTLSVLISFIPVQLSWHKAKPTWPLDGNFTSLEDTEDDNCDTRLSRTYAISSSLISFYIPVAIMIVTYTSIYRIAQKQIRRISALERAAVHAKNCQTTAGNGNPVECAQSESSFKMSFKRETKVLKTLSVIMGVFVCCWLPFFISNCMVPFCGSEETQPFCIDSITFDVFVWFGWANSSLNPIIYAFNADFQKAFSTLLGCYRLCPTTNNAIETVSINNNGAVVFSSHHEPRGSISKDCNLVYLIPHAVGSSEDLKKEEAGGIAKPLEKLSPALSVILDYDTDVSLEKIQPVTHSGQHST

What was measured:
[1] = target: T1, D2 dopamine receptor (Rattus norvegicus, UniProt P61169); assay: Dopamine D2 binding assay ([3H]Sulpiride)
T1 construct: rat striatal membranes; from tissue; host or cells: rat striatum membranes
Procedure: The final ligand concentration was 0.5 nM.

[2] = target: T2, 5HT2 serotonin receptor (Rattus norvegicus, UniProt P14842); assay: Serotonin (5HT2) binding assay ([3H]Ketanserin); conditions: Ki of reference compounds
T2 construct: rat cortical membranes; from tissue; host or cells: rat cortex membranes
Procedure: The final ligand concentration was 1.0 nM.

[3] = target: alpha2-adrenergic receptor; assay: Alpha2-adrenergic (non-selective) binding assay ([3H]RX 781094); design: species or system rat; conditions: Table V; read-out: Ki of reference compounds, alpha2-adrenergic
[4] = target: T3, D1 dopamine receptor (Rattus norvegicus, UniProt P18901); assay: Dopamine D1 binding assay ([3H]SCH 23390)
T3 construct: rat striatal membranes; from tissue; host or cells: rat striatum membranes
Procedure: The final radioligand concentration was 0.5 nM.

CCN(CC)CCNC(=O)c1cc(Cl)c(N)cc1OC [Metoclopramide, reference compound]
Ki ([1]; Table II, read-out: Ki of reference compounds, D2): 10.2 nM

CCN(CC)C(=O)[C@@H]1C=C2c3cccc4[nH]cc(c34)C[C@H]2N(C)C1 [D-LSD, reference compound]
Ki [2]: 2.1 nM

Oc1cc2c(cc1O)C(c1ccccc1)CNCC2 (centres unmarked) [SKF 38393, reference compound]
Ki [1]: 475 nM

COc1cc2nc(N3CCN(C(=O)c4ccco4)CC3)nc(N)c2cc1OC [Prazosin, reference compound]
Ki [3]: 29 nM

O=C(CCCN1CCC2(CC1)C(=O)NCN2c1ccccc1)c1ccc(F)cc1 [Spiperone, reference compound]
Ki [4]: 0.1 nM

Read-outs that look alike come from different tables or passages of the source.
